Biological target: T1, A3AR (Homo sapiens, UniProt P0DMS8)
T1 construct: gene ADORA3; native full-length receptor in peripheral blood lymphocytes or their membranes (healthy donors)
Assay: radioligand saturation binding, lymphocyte membranes, filtration
Conditions: labelled compound; healthy subjects (n = […]); […] min at […] °C; membranes prepared in Tris HCl […] pH […] with adenosine deaminase; read-out: A3ARs - KD (nM) / Bmax (fmol/mg protein)
Excerpt: radioligand saturation binding, lymphocyte membranes, filtration on A3AR

Chains of the proteins cited; added tags and fusions are not shown.
UniProt P0DMS8, whole entry: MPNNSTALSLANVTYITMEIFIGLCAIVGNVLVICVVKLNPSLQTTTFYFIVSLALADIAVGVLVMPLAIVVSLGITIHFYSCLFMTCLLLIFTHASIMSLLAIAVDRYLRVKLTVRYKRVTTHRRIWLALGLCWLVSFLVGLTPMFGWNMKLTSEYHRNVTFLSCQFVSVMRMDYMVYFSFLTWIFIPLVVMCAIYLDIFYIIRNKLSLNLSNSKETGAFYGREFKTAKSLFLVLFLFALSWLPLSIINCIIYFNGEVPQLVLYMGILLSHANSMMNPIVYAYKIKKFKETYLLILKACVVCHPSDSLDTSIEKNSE

For `CCCn1cc2c(nc(NC(=O)Nc3ccc(OC)cc3)n3nc(-c4ccco4)nc23)n1` [[^3H]-MRE 3008F20, [^3H]-5N-(4-methoxyphenylcarbamoyl) amio-8-propyl-2-(2-furyl) pyrazolo [4,3-e]-1,2,4-triazolo [1,5-c]pyrimidine], the Kd was 1.79 ± 0.15 nM.
